Measured values reported in patent US10174081B2, “Antimicrobial peptides and uses therefore” (priority 2011, dated 2019).

How the values were obtained:
S. aureus (ATCC 25923) = test: Anti-microbial assay (CFU survival, EC50) against S. aureus; assay type: cell-based, Staphylococcus aureus; settings: for EC50 of AMPs against S. aureus: 3 hours, 37° C., 10 mM sodium phosphate pH 7.4, ± standard deviation; for EC50: converted from μg/ml with molecular weight of TFA salt
Experimental: S. aureus (ATCC 25923, American Type Culture Collection, Manassas, Va.) was grown in Nutrient Broth (Difco Laboratories, Detroit, Mich.) at pH 7, 37° C., for 24 hours with shaking at 200 rpm. The overnight culture was frozen with 20% glycerol and stored at −80° C. The frozen stock was enumerated (CFU/ml) by dilution plating and growth on Nutrient Agar plates.
For anti-microbial assays, frozen enumerated aliquots were thawed and gently mixed immediately before use. […] Negative control wells contained bacteria with no peptide. […] The EC50 was calculated as previously described (de Latour et al., supra).
Errors were reported based on the standard deviation from the mean of the log10 EC50 values (Gordon et al., supra). 95% confidence intervals were used to determine whether points were statistically different at p=0.05.

C. albicans (ATCC 14053) = test: Anti-microbial assay (CFU survival, EC50) against C. albicans; assay type: cell-based, Candida albicans; settings: for EC50 against C. albicans: 3 hours, 37° C., 10 mM sodium phosphate pH 7.4, inconsistent colony growth; for EC50: converted with molecular weight
Experimental: C. albicans (ATCC 14053) was grown up in 25 mL of Sabouraud Dextrose (SO) broth for 48 hours at 25° C., after which samples were aliquoted into 2 mL microcentrifuge tubes at 0.5 mL.
On a 96-well plate, 1×10^4 CFU per well of C. albicans were incubated with different peptide concentrations (in serial dilutions of 1:10 and 1:5) starting with […] in a solution of buffer containing 10 mM sodium phosphate at pH 7.4 (3 hours, 37° C.). Serial dilutions were then carried out in 1× Dulbecco's PBS, and samples were plated in triplicate on Sabouraud Dextrose Agar plates, incubated (25° C., 48 hours) and CFUs were counted. C. albicans survival at each peptide concentration was calculated as previously described (Amer et al., supra; de Latour et al., supra), based on the percentage of the number of colonies in each experimental plate relative to the average number of colonies observed for assay cultures lacking peptide. […] In the equation, “Top” and “Bottom” refer to the upper and lower boundaries, and were constrained to values <100% and >0%, respectively. For graphing purposes, samples that had no peptide were plotted at 10^−9 μg/ml peptide. EC50 values were determined by fitting the data from the anti-microbial assays to a standard sigmoidal dose-response curve. Errors were reported based on the standard deviation from the mean of the log EC50 values. 2. Results

S. aureus biofilm = test: Biofilm production (crystal violet) and growth (OD600) of S. aureus in TSB; assay type: cell-based, Staphylococcus aureus; settings: 10 μg/ml peptide, 24 hours
Experimental: Biofilm production was measured as previously described (Durham-Colleran et al., supra) with the following modifications. […] The positive control was S. aureus in TSB with no peptide. Six wells were used for each peptide concentration (n=6). After 24 hours, the optical densities (OD) of the wells were taken at 600 nm to quantify […]. The biofilm production was measured using the crystal violet stain technique (Durham-Colleran et al., supra). All experiments were repeated at least twice.

S. aureus = test: Biofilm attachment assay; assay type: cell-based, Staphylococcus aureus; settings: 1 μg/ml peptide, 1 hour, 37° C.
Experimental: Biofilm attachment assays were performed in 96-well microtiter plates (BD Falcon 353072) as previously described (Overhage et al., supra). Overnight cultures of S. aureus were grown in TSB to an OD600 of about 1.0. […] The plates were incubated (1 hour, 37° C.) to allow the S. aureus to adhere to the wells. The wells were washed and OD600 measurements were taken, as in the biofilm production experiments, and the average absorbance for each treatment was determined (n=16).

[1] = tested on: P. aeruginosa (ATCC 19429); test: Anti-microbial assay (CFU survival, EC50) against P. aeruginosa; assay type: cell-based, Pseudomonas aeruginosa; settings: 3 hours, 37° C., 10 mM sodium phosphate pH 7.4, CFU counts
Experimental: P. aeruginosa (ATCC 19429, American Type Culture Collection, Manassas, Va.) was grown in Nutrient Broth (Difco Laboratories, Detroit, Mich.) at 37° C. for 24 hours with shaking at 200 rpm. The CFU/ml was determined by growth on Nutrient Agar plates. For anti-microbial assays, frozen enumerated aliquots were thawed immediately before use.
Each experiment was repeated at least twice, and a representative experiment is shown, for clarity.

P. aeruginosa = test: Galleria mellonella infection by P. aeruginosa with AMP and antibiotic treatments; assay type: in vivo; settings: single dose: 5 μg ciprofloxacin or 10 μg peptide
Experimental: Galleria mellonella (wax moth caterpillars) were obtained from Vanderhorst Wholesale (Saint Marys, Ohio). Eight to twelve caterpillars of equal size/weight were randomly assigned to each group. A 1 mL tuberculin syringe was used to inject 10 μl of 1×10^3 CFU/ml of P. aeruginosa into each caterpillar via the last left proleg. […] Caterpillar control groups included: injected with only PBS, ciprofloxacin, or AMPs. The insects were then observed daily for their survival status.

equine erythrocytes = test: Hemolysis assay; assay type: cell-based; settings: 2% horse erythrocytes, up to 100 μg/ml peptide, 1 hour
Experimental: Hemolytic activities of the peptides were determined using equine erythrocytes (Hema Resource Inc., Eugene, Oreg., USA) in an assay adapted to a microtiter plate format (Papanastasiou et al., supra). Briefly, erythrocytes were prepared by centrifuging 1 ml fresh defibrinated blood (1620×g, 10 minutes) and resuspending the pelletted cells in 1 ml sterile PBS (Fisher Scientific) (pH 7). The cells were washed with PBS three times, and in the final wash the cells were re-suspended in 0.75 ml PBS. From this, a 2% erythrocyte suspension was prepared for the assay. Aliquots of sterile water (positive control), peptide, and PBS (negative control) were used in a microtiter plate. Various peptide concentrations in sterile 10 mM sodium phosphate (0.1, 1, 10, and 100 μg/ml) were tested (n=12). The assay was then incubated (1 hour, 37° C.). After centrifugation (1000×g, 10 minutes), aliquots of supernatant were carefully transferred to a new microtiter plate and the absorbance was obtained for each well. Percent hemolysis was calculated as previously described (de Latour et al., supra).

Row | Compound | EC50 of AMPs against S. aureus (S. aureus (ATCC 25923)) | EC50 (S. aureus (ATCC 25923)) [µM] | EC50 against C. albicans (C. albicans (ATCC 14053)) [µg/mL] | EC50 (C. albicans (ATCC 14053)) [µM] | Inhibition of C. albicans (C. albicans (ATCC 14053); at 500 and 100 μg) | inhibition of biofilm formation (S. aureus biofilm) [%] | attachment of S. aureus to polystyrene wells (S. aureus) | EC50 of AMPs against P. aeruginosa [1] [µg/mL] | effect on survival of infected G. mellonella (P. aeruginosa) | hemolysis (equine erythrocytes)
1 | C[C@H](NC(=O)[C@H](CCCNC(=N)N)NC(=O)[C@@H](N)CCCCN)C(=O)N[C@@H](CCCCN)C(=O)N[C@@H](CCCCN)C(=O)N[C@@H](Cc1ccccc1)C(=O)N[C@@H](Cc1ccccc1)C(=O)N[C@@H](CCCCN)C(=O)N[C@@H](CCCCN)C(=O)N1CCC[C@H]1C(=O)N[C@@H](CCCCN)C(N)=O [ATRA-2] | 37 µg/mL and 37.1 ± 1.6 µg/mL | 16 | 97.27 (≈ 69.2 µM) | 69.2 | – | – | – | – | – | –
2 | CC(C)C[C@H](NC(=O)[C@H](CCCCN)NC(=O)[C@H](CCCCN)NC(=O)[C@H](Cc1ccccc1)NC(=O)[C@H](Cc1ccccc1)NC(=O)[C@H](CCCCN)NC(=O)[C@H](CCCCN)NC(=O)[C@H](Cc1ccccc1)NC(=O)[C@H](CCCNC(=N)N)NC(=O)[C@@H](N)CCCCN)C(=O)N[C@@H](CCCCN)C(N)=O [ATRA-1] | 1.1 µg/mL and 1.5 ± 1.5 µg/mL and 1.06 ± 1.5 µg/mL | 0.44 | 56.37 (≈ 37.7 µM) | 37.7 | consistently seen | – | – | – | – | –
3 | CC[C@H](C)[C@H](NC(=O)[C@@H](NC(=O)[C@H](CCCCN)NC(=O)[C@@H]1CCCN1C(=O)[C@H](CCCCN)NC(=O)[C@H](CCCCN)NC(=O)[C@H](Cc1ccccc1)NC(=O)[C@H](Cc1ccccc1)NC(=O)[C@H](CCCCN)NC(=O)[C@H](CCCCN)NC(=O)[C@H](C)NC(=O)[C@H](CCCNC(=N)N)NC(=O)[C@H](CCCCN)NC(=O)[C@H](CCCCN)NC(=O)[C@@H](NC(=O)[C@H](CO)NC(=O)[C@H](CC(N)=O)NC(=O)[C@H](CCCCN)NC(=O)[C@H](CC(C)C)NC(=O)[C@H](CCCCN)NC(=O)[C@H](CCCCN)NC(=O)[C@H](Cc1ccccc1)NC(=O)[C@H](Cc1ccccc1)NC(=O)[C@H](CCCCN)NC(=O)[C@H](CCCCN)NC(=O)[C@H](Cc1ccccc1)NC(=O)[C@H](CCCNC(=N)N)NC(=O)[C@@H](N)CCCCN)C(C)C)C(C)C)C(=O)NCC(=O)N[C@H](C(=O)N[C@H](C(=O)N[C@@H](Cc1ccccc1)C(=O)N1CCC[C@H]1C(=O)N[C@@H](Cc1ccccc1)C(=O)O)[C@@H](C)O)C(C)C [NA-CATH, reference compound] | 5.7 µg/mL and 5.74 ± 1.5 µg/mL | 0.98 | – | – | – | ~50 | did not decrease | – | – | –
4 | CC[C@H](C)[C@H](NC(=O)[C@@H](NC(=O)[C@H](CCCCN)NC(=O)[C@H](CC(C)C)NC(=O)[C@H](CCCCN)NC(=O)[C@H](CCCCN)NC(=O)[C@H](Cc1ccccc1)NC(=O)[C@H](Cc1ccccc1)NC(=O)[C@H](CCCCN)NC(=O)[C@H](CCCCN)NC(=O)[C@H](Cc1ccccc1)NC(=O)[C@H](CCCNC(=N)N)NC(=O)[C@H](CCCCN)NC(=O)[C@H](CCCCN)NC(=O)[C@@H](NC(=O)[C@H](CO)NC(=O)[C@H](CC(N)=O)NC(=O)[C@H](CCCCN)NC(=O)[C@H](CC(C)C)NC(=O)[C@H](CCCCN)NC(=O)[C@H](CCCCN)NC(=O)[C@H](Cc1ccccc1)NC(=O)[C@H](Cc1ccccc1)NC(=O)[C@H](CCCCN)NC(=O)[C@H](CCCCN)NC(=O)[C@H](Cc1ccccc1)NC(=O)[C@H](CCCNC(=N)N)NC(=O)[C@@H](N)CCCCN)C(C)C)C(C)C)C(=O)NCC(=O)N[C@H](C(=O)N[C@H](C(=O)N[C@@H](Cc1ccccc1)C(=O)N1CCC[C@H]1C(=O)N[C@@H](Cc1ccccc1)C(=O)O)[C@@H](C)O)C(C)C [NA-CATH:ATRA1-ATRA1] | 1.0 µg/mL and 1.01 ± 1.4 µg/mL | – | – | – | – | – | did not decrease | 0.37 | did not improve survival; also recorded: ineffective at prolonging survival | did not elicit statistically significant hemolysis

In brackets after ≈: the same amount, converted by molar mass. Several values for one entry are separate records, joined by “and”; a condition that tells them apart may be missing. Equal entries are not always repeated. Entries after “also recorded” stand apart in the source; their conditions may differ.
